Results from patent publication US20030032636A1, “Combination of a serotonin reuptake inhibitor and a 5-HT2C antagonist, inverse agonist or partial agonist” (H. Lundbeck A/S, priority 1999, published 2003).

Target: T1, 5-HT2C receptor (Rattus norvegicus, UniProt P08909)
T1 construct: host or cells: SR-3T3 cells
T1 sequence (P08909 33-460): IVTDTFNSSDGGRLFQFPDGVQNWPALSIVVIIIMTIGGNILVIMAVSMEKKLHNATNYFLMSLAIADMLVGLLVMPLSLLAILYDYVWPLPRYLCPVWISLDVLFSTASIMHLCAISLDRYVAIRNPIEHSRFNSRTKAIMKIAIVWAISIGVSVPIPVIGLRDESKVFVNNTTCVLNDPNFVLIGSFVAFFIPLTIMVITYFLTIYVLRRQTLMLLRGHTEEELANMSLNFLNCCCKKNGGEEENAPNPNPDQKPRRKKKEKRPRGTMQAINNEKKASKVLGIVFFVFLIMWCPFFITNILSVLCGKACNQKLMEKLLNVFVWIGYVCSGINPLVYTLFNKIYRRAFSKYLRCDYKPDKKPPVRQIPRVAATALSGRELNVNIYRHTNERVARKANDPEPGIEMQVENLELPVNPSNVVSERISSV
Assay: 5-HT2C binding (3H-Mesulergine, SR-3T3 cells)
Conditions: 0.5 nM 3H-Mesulergine

Compound: Cc1nc2sccn2c(=O)c1CCN1CCC(=C(c2ccc(F)cc2)c2ccc(F)cc2)CC1 [ritanserin]
- Ki: 0.19 nM
